Only a part is listed here, and it is no random draw. Active and inactive are the calls of the source.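 How the source made its calls: active means inhibition above a set limit, near 3 SD of compounds lacking own fluorescence (cut at about 54% in these data); inactive means the rest.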
system: beta-arrestin 1 C-terminal peptide binding to AP2 beta2-adaptin appendage (human); experiment: inhibitors of beta-arrestin/AP2 binding, primary screen, biochemical, GPCR trafficking, flow cytometry (AID 504490); settings: FITC-arrestin peptide / GST-AP2 beads, at 10 µM, hits give high values, AP2 beta2 appendage carries R879A mutation;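 further: plate controls were DMSO wells for no effect and 5 µM unlabelled arrestin peptide for full effect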

SMILES	inhibition
CCC(C)N(CC(C)C)C(=S)SC(NC(C)=O)C(Cl)(Cl)Cl (stereo not drawn)	inactive: -2.12%
CCOC(=O)c1ccc(NC(=O)C(C)(CCl)SC)cc1 (stereo not drawn)	inactive: -4.17%
O=C(OC1CN2CCC1CC2)c1cccc([N+](=O)[O-])c1 (stereo not drawn)	inactive: -4.34%
O=C(Nc1ccncc1[N+](=O)[O-])c1ccc([N+](=O)[O-])cc1[N+](=O)[O-]	inactive: 6.68%
O=C(COc1ccccc1)OC1CN2CCC1CC2 (stereo not drawn)	inactive: 9.6%
COP1(=S)c2c(C)nn(CCC#N)c2N=C(c2ccc(F)cc2)N1C (stereo not drawn)	inactive: 9.01%
O=[N+]([O-])c1ccc(Nc2ccc(Oc3ccc([N+](=O)[O-])cc3[N+](=O)[O-])cc2)c([N+](=O)[O-])c1	inactive: -20.7%
Cc1cc(SC(NC=O)C(Cl)(Cl)Cl)ncn1 (stereo not drawn)	inactive: 3.6%
O=P(Nc1ccccn1)(c1cccc2ccccc12)c1cccc2ccccc12	inactive: 9.56%
CCOC(=O)Nc1cccc([As](=O)(O)O)c1	inactive: 9.12%
Cc1cc(SC(NC(=O)c2ccccc2)C(Cl)(Cl)Cl)nc(C(C)C)n1 (stereo not drawn)	inactive: 8.23%
CCCCOc1ccc(C(=O)NCC2(N3CCCCC3)CCCCC2)cc1OC	inactive: 0.66%
CC1CCNP(=O)(N(CCCl)CCCl)O1 (stereo not drawn)	inactive: -12.5%
CCOC(=O)Nc1ccc([As](=O)(O)O)c(O)c1	inactive: -11.1%
O=[N+]([O-])c1cc([N+](=O)[O-])c(-c2ccn[nH]2)s1	inactive: 47.9%
CC(C)NC(=O)NP(=O)(Oc1ccccc1)Oc1ccccc1	inactive: 7.49%
CCN(CC)C(=S)SC(NC=O)C(Cl)(Cl)Cl (stereo not drawn)	inactive: 5.92%
O=C(OC1CN2CCC1CC2)c1cccc2[nH]cnc12 (stereo not drawn)	inactive: 22.4%
COC(=O)C1(C)COP(=O)(N2CCCCCC2)OC1 (stereo not drawn)	inactive: -4.5%
CC(C)c1ccc(OP(=O)(Nc2ccccn2)Oc2ccccc2F)cc1 (stereo not drawn)	inactive: 14.2%
ClCCSc1nnc(-c2cccnc2)o1	inactive: -1.24%

SMILES	inhibition
Cc1ccc2nc3c(c(C)c2c1)CC(C(Cl)Cl)S3 (stereo not drawn)	inactive: 1.52%
Cc1ccc(OP(=O)(Nc2ccc([N+](=O)[O-])cn2)Oc2ccc(C)cc2)cc1	inactive: 26.7%
O=[N+]([O-])c1ccc(-c2cc([N+](=O)[O-])c(O)c([N+](=O)[O-])c2)cc1	inactive: 6.5%
COc1cc(C(=O)NCC2(N3CCOCC3)CCCCC2)ccc1OCC(C)C	inactive: 0.14%
C[As](=O)(O)c1cccc(C(=O)O)c1	inactive: -2.18%
O=[As](O)(c1ccc(O)cc1)c1ccccc1O	inactive: -11.4%
COc1ccc(N/C(=N/P(=O)(N2CCOCC2)N2CCOCC2)N2CCOCC2)cc1	inactive: 20.9%
O=[N+]([O-])c1cc(Oc2ccc([N+](=O)[O-])cc2C(F)(F)F)cc([N+](=O)[O-])c1	inactive: 19.2%
COc1cc(I)ccc1[As](=O)(O)O	inactive: 25%
COc1ccc2nc(NP(=O)(c3ccccc3)c3ccccc3)sc2c1	inactive: 9.52%
O=P1(N(CCCl)CCCl)Nc2ccccc2N1	inactive: 34%
O=P1(N(CCCl)CCCl)OCCCN1CCCl (stereo not drawn)	inactive: 3.78%
Cc1cc(=O)[nH]c(N[N+](=O)[O-])n1	inactive: -0.05%
O=C(OC1CN2CCC1CC2)C12CC3CC(CC(C3)C1)C2 (stereo not drawn)	inactive: -5.5%
Cc1c2c(nc3ccccc13)SC(C(Cl)Cl)C2 (stereo not drawn)	inactive: -2.19%
CCOP(=O)(Nc1cccc2ccccc12)OCC	inactive: 7.32%
COc1cc(C2NCCC3(OCCO3)C2(C)C)cc(OC)c1OC (stereo not drawn)	inactive: 12.3%
CCCOP(=S)(Nc1nc(N)cc(=O)[nH]1)OCCC	inactive: 8.96%
Cc1ccc(NCCc2c([N+](=O)[O-])cc([N+](=O)[O-])cc2[N+](=O)[O-])cc1	inactive: 19.5%
Nc1cccc2c([As](=O)(O)O)cccc12	inactive: -0.01%
Cc1cccc(OCC(=O)OC2CN3CCC2CC3)c1 (stereo not drawn)	inactive: 6.17%

SMILES	inhibition
O=[As](O)(c1cccc(O)c1)c1cccc(O)c1	inactive: 34.1%
CS(=O)(=O)c1ccc(Cl)c(NC(=O)COC(=O)C(O)(c2ccccc2)c2ccccc2)c1	inactive: -6.91%
O=[As](O)(O)c1cccnc1	inactive: 2.33%
COc1cc(C(=O)NCC2(N3CCOCC3)CCCCC2)cc(Cl)c1OC(C)C	inactive: 14%
O=C(OC1CN2CCC1CC2)c1ccc(Cl)cc1 (stereo not drawn)	inactive: 2.57%
CN(C(=O)Cc1ccc(Cl)c(Cl)c1)[C@H]1CC[C@@]2(CCCO2)C[C@@H]1N1CCCC1	inactive: -9.72%
O=[N+]([O-])c1ccc2c(c1)nnn2O	inactive: -5.18%
CN(C)C(=O)c1cc([N+](=O)[O-])cc2c1-c1c(cc([N+](=O)[O-])cc1[N+](=O)[O-])C2=O	inactive: -1.23%
CCOP1(=S)c2c(C)nn(CCC#N)c2N=C(c2ccc(F)cc2)N1C (stereo not drawn)	inactive: 10.2%
CN(C(=O)Cc1ccccc1)[C@@H]1CC[C@]2(CCCO2)C[C@H]1N1CCCC1	inactive: -1.25%
N#CCCN(C(=O)COC(=O)C(O)(c1ccccc1)c1ccccc1)c1ccc(F)cc1	inactive: -3.31%
NC(=O)Nc1ccc([As](=O)(O)O)cc1	inactive: -0.07%
O=C(O)COc1ccc([As](=O)(O)O)cc1[N+](=O)[O-]	inactive: -4.76%
Nc1ccccc1[As](=O)(O)c1ccccc1	inactive: 36.5%
CS(=O)(=O)c1cc([N+](=O)[O-])c2no[n+]([O-])c2c1	inactive: 36%
O=P(Nc1nccs1)(Oc1ccccc1)Oc1ccccc1	inactive: 13.4%
O=P(Nc1nccs1)(c1ccccc1)c1nc2ccccc2s1 (stereo not drawn)	inactive: -3.66%
CCOP1(=S)c2c(C)nn(CCC#N)c2N=C(c2ccccc2F)N1C (stereo not drawn)	inactive: 5.78%
Cc1ccc(OCC(=O)OC2CN3CCC2CC3)cc1 (stereo not drawn)	inactive: 8.67%
O=[As](O)(c1cccs1)c1cccs1	inactive: 32.4%
NS(=O)(=O)c1cccc(NC(=O)COC(=O)C(O)(c2ccccc2)c2ccccc2)c1	inactive: -17.3%
